Laboratory results as given in patent EP1994938A1, “New lipoglycodepsipeptide compositions” (priority 2007, dated 2008).

Assays:
[1] = iv; cited from earlier work
[2] = rats, 30 mg/kg i.v. once daily for three days

ramoplanin
short term in vivo toxic effects [1]: progressive necrotization at the site of injection and hemolysis as revealed by urine discoloration
hemolysis in vivo ([2]; formulated in 0.9% NaCl): detected
short term in vivo toxicity effect ([2]; formulated with cyclodextrin (SBE-β-CD:ramoplanin 10 : 1), in comparison to 0.9% NaCl formulation): significantly reduced
